The values below come from PubChem BioAssay AID493213 (Broad Institute, 2011).

This assay in a line: cellular proteasome inhibitors – cell-based, luminescence, U2OS, dry powder, set 3, counter-screen for HIF activator project, dose response (AID 493213). The following applies: U2OS proteasome chymotrypsin-like activity, Proteasome-Glo luminescence; at 38 µM (top of the series). Put shortly:
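System: U2OS cells; compound: 8-point 3-fold series; repeats: duplicates; schedule: 24 h plating, 4 h compound, 2 h reagent; measured by: Proteasome-Glo luminescence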
In general terms: Counterscreens check selectivity or assay interference.

The list shows a part of the results, in another mix than the full data. Active and inactive are the calls of the source.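 How the source made its calls: active means dose response lowering luminescence by over half the proteasome blocker control effect, potency within ten times top dose; inactive means change in the opposite direction, plus the rest.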

Turning to `O=c1[nH]c2ccccc2n1C1CCN(Cc2ccc(O)c3ncccc23)CC1`, the activity change, negative = inhibition was inactive: 27.9%.
